Measured values taken from patent publication US20250115612A1, “CERTAIN 2,5-DIAZABICYCLO[4.2.0]OCTANES AND OCTAHYDROFURO[3,4-B]PYRAZINES AS GLP-1 RECEPTOR MODULATORS” (ASTRAZENECA AB, priority 2021, published 2025).

Amino acid sequences for entries named in this document (tags omitted).
UniProt Q14432, whole entry: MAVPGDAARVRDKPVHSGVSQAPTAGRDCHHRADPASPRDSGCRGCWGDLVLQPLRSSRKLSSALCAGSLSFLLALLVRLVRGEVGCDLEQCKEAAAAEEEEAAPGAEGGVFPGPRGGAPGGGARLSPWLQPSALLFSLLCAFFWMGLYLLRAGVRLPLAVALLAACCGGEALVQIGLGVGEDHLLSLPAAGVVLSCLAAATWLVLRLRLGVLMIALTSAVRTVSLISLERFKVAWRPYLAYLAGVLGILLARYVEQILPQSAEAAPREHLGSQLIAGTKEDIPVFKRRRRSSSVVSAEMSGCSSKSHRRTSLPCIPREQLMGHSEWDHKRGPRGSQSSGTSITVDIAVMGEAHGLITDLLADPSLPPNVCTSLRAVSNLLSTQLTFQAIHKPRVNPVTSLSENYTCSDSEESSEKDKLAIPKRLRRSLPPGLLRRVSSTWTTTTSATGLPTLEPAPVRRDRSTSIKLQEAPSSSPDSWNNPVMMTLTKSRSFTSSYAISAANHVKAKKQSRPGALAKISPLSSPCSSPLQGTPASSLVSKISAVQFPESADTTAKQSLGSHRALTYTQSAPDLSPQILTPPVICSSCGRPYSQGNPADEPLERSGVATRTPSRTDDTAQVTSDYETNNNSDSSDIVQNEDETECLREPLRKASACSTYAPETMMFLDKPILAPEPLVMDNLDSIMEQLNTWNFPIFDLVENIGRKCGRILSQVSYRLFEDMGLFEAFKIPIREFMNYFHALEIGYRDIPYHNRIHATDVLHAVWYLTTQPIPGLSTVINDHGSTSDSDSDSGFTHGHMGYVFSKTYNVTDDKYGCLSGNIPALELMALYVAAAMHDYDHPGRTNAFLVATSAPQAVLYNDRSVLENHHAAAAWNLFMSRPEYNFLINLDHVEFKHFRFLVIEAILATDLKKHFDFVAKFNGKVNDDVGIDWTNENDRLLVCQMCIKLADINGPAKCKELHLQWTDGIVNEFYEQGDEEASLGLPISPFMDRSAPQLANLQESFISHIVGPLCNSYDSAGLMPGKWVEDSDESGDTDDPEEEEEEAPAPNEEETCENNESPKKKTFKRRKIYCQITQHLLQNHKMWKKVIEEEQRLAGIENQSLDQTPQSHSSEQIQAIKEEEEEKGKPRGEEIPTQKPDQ

Target: human phosphodiesterase-3A (Homo sapiens, UniProt Q14432)
Assay: PDE3 assay (formation of 5'AMP from cAMP, SPA)
Settings: read-out: PDE3 IC50; human recombinant enzyme expressed in Sf9 cells
Description: Evaluation of the effects of compounds on the activity of the human phosphodiesterase-3A is quantified by measuring the formation of 5′AMP from cAMP using a human recombinant enzyme expressed in a clonal isolate of Spodoptera frugiperda cells (Sf9) cells.
The test compound, reference compound or water (control) are added to a buffer containing 40 mM tris(hydroxymethyl)aminomethane (Tris)/HCl (pH 7.4) and 8 mM MgCl2, 450 nMcAMP and 0.25 μCi [3H]cAMP.
Thereafter, the reaction is initiated by addition of the enzyme (about 1 U) and the mixture is incubated for 20 min at 22° C.
For basal control measurements, the enzyme is omitted from the reaction mixture.
Following incubation SPA beads are added. After 30 min at 22° C. under shaking, the amount of [^3H]5′AMP is quantified with a scintillation counter (Topcount, Packard).
The results are expressed as a percent inhibition of the control enzyme activity. The standard inhibitory reference compound is milrinone (CAS number 78415-72-2), which is tested in each experiment at several concentrations to obtain an inhibition curve from which its IC50 value is calculated.

IC50: 5 µM
SMILES: Cc1cc(Cc2nc3ccc(C(=O)O)cc3n2C[C@@H]2CCO2)c(F)cc1-c1cccc(OCc2ccc(C#N)cc2F)n1
